# Data: US7662861B2 (IDEXX Laboratories, Inc., priority 2003, dated 2010)
# Settings: cats
# [1] = single sub-cutaneous 40 mg/kg, 300 mg/ml in 10% propylene glycol in glycerol formal
substance,measurement,setting,value
Florfenicol butyrate [FFBut],peak / high serum concentrations of florfenicol,[1],4 to 5 µg/mL
same,period with serum florfenicol concentration above 1.0 ug/ml (the MIC),[1],5 to 6 days
same,"serum concentration course, florfenicol butyrate v. NUFLOR","subcutaneous 40 mg/kg each, butyrate 350 mg/ml",higher compared to NUFLOR® for days 2-6
